The entries are a selection whose mix differs from that of the whole data set. Results filed as inconclusive are left out. Activity calls are given as the source filed them. Unless noted, the call rests on the fitted dose curve; in most records, active means well fitted curve in the direction sought with a large enough effect; inconclusive means small, poorly fitted or top-dose-only effect, or another doubt; inactive means no such curve, though single readings can be large; an effect the other way counts as inactive or inconclusive.
Columns and labels:
[1] = target: Protein phosphatase 1D (Homo sapiens) (UniProt O15297); experiment: Rhodamine-PBP qHTS Assay for Modulators of WT P53-Induced Phosphatase 1 (WIP1) (AID 1347425); conditions: recombinant WIP1, Rhodamine-PBP phosphate fluorescence, real-time; at 57.5 µM (top of the series) unless noted; further: % of control where 0% means no effect
In short: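 WIP1 (5 nM final) was preincubated with compound for 1 hour at room temperature. It then dephosphorylated 10 uM VEPPL-pS-QETFS peptide in Tris-HCl pH 7.5 with 30 mM MgCl2. Released Pi was detected by 10 uM Rh-PBP fluorescence (ex 525/em 598 nm) read at 1-min intervals for 11 min, as delta f1 - f0.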

By UniProt entry, the sequences of proteins in these tests, tags left out. Where a name states a change or a piece, a line headed by the entry shows the natural chain unless it says otherwise.
UniProt O15297: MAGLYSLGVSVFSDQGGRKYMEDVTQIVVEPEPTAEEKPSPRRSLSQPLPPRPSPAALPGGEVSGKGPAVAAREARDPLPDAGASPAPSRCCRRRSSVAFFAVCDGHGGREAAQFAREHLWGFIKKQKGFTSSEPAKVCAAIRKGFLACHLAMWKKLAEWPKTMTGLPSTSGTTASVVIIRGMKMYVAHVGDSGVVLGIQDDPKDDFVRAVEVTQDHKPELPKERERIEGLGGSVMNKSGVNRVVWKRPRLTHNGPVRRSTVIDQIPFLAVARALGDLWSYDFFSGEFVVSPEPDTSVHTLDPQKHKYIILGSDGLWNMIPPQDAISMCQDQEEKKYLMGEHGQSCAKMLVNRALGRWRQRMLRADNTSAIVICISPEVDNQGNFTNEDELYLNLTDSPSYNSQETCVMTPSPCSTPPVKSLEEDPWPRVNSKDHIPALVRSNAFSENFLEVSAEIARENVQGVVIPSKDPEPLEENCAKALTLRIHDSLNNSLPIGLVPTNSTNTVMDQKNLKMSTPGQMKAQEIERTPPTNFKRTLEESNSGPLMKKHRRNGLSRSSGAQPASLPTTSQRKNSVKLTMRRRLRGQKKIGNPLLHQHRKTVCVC
UniProt Q99828: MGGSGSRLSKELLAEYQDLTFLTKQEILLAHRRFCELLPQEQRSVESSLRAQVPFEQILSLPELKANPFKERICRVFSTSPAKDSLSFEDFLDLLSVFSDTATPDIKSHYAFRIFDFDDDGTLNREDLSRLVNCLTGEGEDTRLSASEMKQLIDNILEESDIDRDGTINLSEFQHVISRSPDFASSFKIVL
UniProt P10635, whole entry, looked up: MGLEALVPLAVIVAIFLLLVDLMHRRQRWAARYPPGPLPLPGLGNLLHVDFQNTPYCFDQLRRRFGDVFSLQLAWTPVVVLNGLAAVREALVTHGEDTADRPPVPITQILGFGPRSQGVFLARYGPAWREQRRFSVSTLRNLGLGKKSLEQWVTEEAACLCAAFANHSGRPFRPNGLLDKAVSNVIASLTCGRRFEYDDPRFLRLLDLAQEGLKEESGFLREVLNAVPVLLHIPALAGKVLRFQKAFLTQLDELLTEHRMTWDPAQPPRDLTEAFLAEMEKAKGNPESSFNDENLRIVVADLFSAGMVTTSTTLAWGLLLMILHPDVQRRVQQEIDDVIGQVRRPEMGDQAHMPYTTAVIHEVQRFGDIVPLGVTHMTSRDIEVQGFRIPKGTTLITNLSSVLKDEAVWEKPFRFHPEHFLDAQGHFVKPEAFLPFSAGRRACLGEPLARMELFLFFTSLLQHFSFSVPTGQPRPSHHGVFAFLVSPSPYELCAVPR
UniProt P11712, whole entry, looked up: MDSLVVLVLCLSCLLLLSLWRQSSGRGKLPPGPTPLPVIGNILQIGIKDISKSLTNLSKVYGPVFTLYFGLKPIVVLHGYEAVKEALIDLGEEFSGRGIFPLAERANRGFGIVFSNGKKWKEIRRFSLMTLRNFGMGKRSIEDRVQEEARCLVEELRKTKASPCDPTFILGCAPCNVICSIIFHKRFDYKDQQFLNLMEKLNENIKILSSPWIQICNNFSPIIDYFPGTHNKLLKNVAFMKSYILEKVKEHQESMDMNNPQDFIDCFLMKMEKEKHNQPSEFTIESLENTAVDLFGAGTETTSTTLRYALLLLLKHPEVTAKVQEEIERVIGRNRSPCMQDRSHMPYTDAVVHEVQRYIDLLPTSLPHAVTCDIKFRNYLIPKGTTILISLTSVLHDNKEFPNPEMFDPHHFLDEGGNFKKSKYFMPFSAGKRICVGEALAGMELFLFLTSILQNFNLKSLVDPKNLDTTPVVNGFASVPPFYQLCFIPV

[2] = target: Calcium and integrin-binding protein 1 (Homo sapiens) (UniProt Q99828); experiment: Primary qHTS for Identification of Calcium Integrin Binding Protein 1 (CIB1) Competitor (AID 1508620); conditions: CIB1-GST / FITC-alphaIIb peptide fluorescence polarization; at 114 µM (top of the series) unless noted;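 further: GST tagged CIB1 binding a fluorescein labelled alphaIIb integrin peptide tracer; top concentration of the series differs between compounds; on the % scale 0 is the no-effect control and ±100 the full control effect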
[3] = Primary qHTS for small molecule stabilizers of the endoplasmic reticulum resident proteome: Secreted ER Calcium Modulated Protein (SERCaMP) assay (AID 1508630); conditions: SH-SY5Y GLuc-SERCaMP (Gaussia luciferase released on ER calcium loss) secretion, thapsigargin, luminescence; at 38.4 µM (top of the series); further: on the % scale 0 is the no-effect control and ±100 the full control effect
In short: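 The SH-SY5Y reporter protocol was run at 3 concentrations up to 38.3 uM (primary) or 11 concentrations (follow-up): 16 h compound, 100 nM thapsigargin for 4 h, then extracellular luciferase luminescence.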

[4] = A High-Content qHTS Against Drug Library for the Identification of Small Molecules that Inhibit DYT1 Early Onset Primary Dystonia-Associated Cell Pathology (AID 1645839; calls by dose curve)
In short: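 High-content imaging quantified EGFP-TorsinA mislocalization in HEK293-derived cells inducibly expressing DYT1 mutant torsinA, after 48 h exposure to compound given together with tetracycline induction. Cell count served as a toxicity channel alongside %pathology.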

[5] = target: Cytochrome P450 2D6 (Homo sapiens) (UniProt P10635); experiment: Cytochrome P450 family 2 subfamily D member 6 (CYP2D6) small molecule antagonists: luciferase biochemical (cell-free) qHTS assay (AID 1645840; active means well fitted curve in the direction sought with a large enough effect in the repeat runs; an effect the other way counts as inactive or inconclusive; further: potency means the concentration at half of the fitted maximal effect; nearly all actives have a fitted effect of over 55% in size)
In short: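 P450-Glo CYP2D6 system: proluciferin substrate converted by enzyme to luciferin, read by luminescence proportional to activity. Enzyme-substrate mix with compound 10 min at room temperature, then NADPH regeneration 1 h before detection reagent.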

[6] = target: Cytochrome P450 2C9 (Homo sapiens) (UniProt P11712); experiment: Cytochrome P450 family 2 subfamily C member 9 (CYP2C9) small molecule antagonists: luciferase qHTS assay (AID 1645842; active means well fitted curve in the direction sought with a large enough effect in the repeat runs; an effect the other way counts as inactive or inconclusive; further: on the % scale 0 is the no-effect control and ±100 the full control effect; nearly all actives have a fitted effect of over 55% in size); conditions: P450-Glo CYP2C9 enzyme assay, luciferin luminescence; at 57.4 µM (top of the series) unless noted
In short: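 P450-Glo CYP2C9 system: proluciferin substrate with enzyme in mix containing 0.4% BSA, 10 min at room temperature, then NADPH regeneration solution added and incubated 1 h at 37C. Detection reagent stopped reaction; luminescence read after 20 min as RLU.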

[7] = system: CRL-7250; experiment: Cytotoxic Profiling of Annotated Libraries Using Quantitative High-Throughput Screening (AID 1296008); conditions: Five cell lines viability, CellTiter-Glo ATP luminescence, 48-72 h; active compounds read low; further: nearly all actives have a fitted effect of over 60% in size; on max response: on the % scale 0 is the no-effect control and ±100 the full control effect
[8] = system: HEK293; experiment: as above; conditions: Five cell lines viability, CellTiter-Glo ATP luminescence, 48-72 h; max response: active compounds read low
[9] = system: HaCat; experiment: as above; conditions: Five cell lines viability, CellTiter-Glo ATP luminescence, 48-72 h; active compounds read low
[10] = system: KB-3-1; experiment: as above; conditions: Five cell lines viability, CellTiter-Glo ATP luminescence, 48-72 h, active compounds read low
[11] = system: NIH3T3; experiment: as above; conditions: Five cell lines viability, CellTiter-Glo ATP luminescence, 48-72 h; active compounds read low
[12] = system: CRL-7250; experiment: qHTS assay to identify novel small-molecules to repurpose for Merkel cell carcinoma treatment (AID 1296009); conditions: MCC and control cell lines, CellTiter-Glo viability, 72 h; at 44.8 µM (top of the series) unless noted; further: nearly all actives have a fitted effect of over 60% in size; on activity change, negative = cytotoxicity: on the % scale 0 is the no-effect control and ±100 the full control effect
[13] = system: HACAT; experiment: as above; conditions: MCC and control cell lines, CellTiter-Glo viability, 72 h; at 44.8 µM (top of the series)
[14] = system: HEK293T; experiment: as above; conditions: MCC and control cell lines, CellTiter-Glo viability, 72 h; at 44.8 µM (top of the series)
[15] = system: MCC-13; experiment: as above; conditions: MCC and control cell lines, CellTiter-Glo viability, 72 h; at 46 µM (top of the series) unless noted
[16] = system: MCC-26; experiment: as above; conditions: MCC and control cell lines, CellTiter-Glo viability, 72 h; at 46 µM (top of the series) unless noted
[17] = system: MKL-1; experiment: as above; conditions: MCC and control cell lines, CellTiter-Glo viability, 72 h; at 46 µM (top of the series) unless noted
[18] = system: MKL-2; experiment: as above; conditions: MCC and control cell lines, CellTiter-Glo viability, 72 h; at 46 µM (top of the series) unless noted
[19] = system: UISO; experiment: as above; conditions: MCC and control cell lines, CellTiter-Glo viability, 72 h; at 46 µM (top of the series)
[20] = system: C33A; experiment: Primary qHTS to identify gynecologic anti-cancer compounds using libraries of approved drugs and bioactive compounds (AID 1345084); conditions: Gynecologic cancer cell panel viability, ATPlite luminescence, 48 h; at 57.5 µM (top of the series) unless noted; further: on the % scale 0 is the no-effect control and ±100 the full control effect; nearly all actives have a fitted effect of over 55% in size
In short: (§1)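 Measured: luminescence after ATPlite addition (15 min, RT). Exposure: 48 h, 37 C, 5% CO2.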

[21] = system: CAOV3; experiment: as above; conditions: Gynecologic cancer cell panel viability, ATPlite luminescence, 48 h; at 57.5 µM (top of the series) unless noted
In short: as §1

[22] = system: CASKI; experiment: as above; conditions: Gynecologic cancer cell panel viability, ATPlite luminescence, 48 h; at 57.5 µM (top of the series) unless noted
In short: as §1

[23] = system: Es-2; experiment: as above; conditions: Gynecologic cancer cell panel viability, ATPlite luminescence, 48 h; at 57.5 µM (top of the series) unless noted
In short: as §1

[24] = system: HeLa; experiment: as above; conditions: Gynecologic cancer cell panel viability, ATPlite luminescence, 48 h; at 57.5 µM (top of the series) unless noted
In short: as §1

[25] = system: Hek293T; experiment: as above; conditions: Gynecologic cancer cell panel viability, ATPlite luminescence, 48 h, control line for the selectivity index; at 57.5 µM (top of the series) unless noted
In short: as §1

[26] = system: JEG-3; experiment: as above; conditions: Gynecologic cancer cell panel viability, ATPlite luminescence, 48 h; at 57.5 µM (top of the series) unless noted
In short: as §1

[27] = system: OV90; experiment: as above; conditions: Gynecologic cancer cell panel viability, ATPlite luminescence, 48 h; at 57.5 µM (top of the series) unless noted
In short: as §1

[28] = system: PA-1; experiment: as above; conditions: Gynecologic cancer cell panel viability, ATPlite luminescence, 48 h; at 57.5 µM (top of the series) unless noted
In short: as §1

[29] = system: SKOV3; experiment: as above; conditions: Gynecologic cancer cell panel viability, ATPlite luminescence, 48 h; at 57.5 µM (top of the series) unless noted
In short: as §1

[30] = system: Tov-21-G; experiment: as above; conditions: Gynecologic cancer cell panel viability, ATPlite luminescence, 48 h; at 57.5 µM (top of the series) unless noted
In short: as §1

[31] = system: Tov112D; experiment: as above; conditions: Gynecologic cancer cell panel viability, ATPlite luminescence, 48 h; at 57.5 µM (top of the series) unless noted
In short: as §1

CN(C(=O)Cc1ccccc1)[C@H]1CC[C@@]2(CCCO2)C[C@@H]1N1CCCC1
inactive: activity change, negative = inhibition [1] 22.1% | activity change, negative = inhibition [2] -11.7% | activity change, negative = inhibition [3] -16% | Potency [4] | activity change, negative = inhibition [6] -3.85% | outcome [7] | outcome [8] | outcome [9] | max response [10] 1.21% | max response [11] -5.17% | outcome [12] | outcome [13] | outcome [14] | activity change, negative = cytotoxicity [15] 6.76% | activity change, negative = cytotoxicity [16] 7.08% | activity change, negative = cytotoxicity [17] 4.11% | activity change, negative = cytotoxicity [18] 2.13% | activity change, negative = cytotoxicity [19] 21.2% | activity change, negative = cytotoxicity [20] -4.64% | activity change, negative = cytotoxicity [21] 9.65% | activity change, negative = cytotoxicity [22] -4% | activity change, negative = cytotoxicity [23] 10.4% | activity change, negative = cytotoxicity [24] -2.63% | activity change, negative = cytotoxicity [25] 21.1% | activity change, negative = cytotoxicity [26] -2.83% | activity change, negative = cytotoxicity [27] 20.3% | activity change, negative = cytotoxicity [28] 28.7% | activity change, negative = cytotoxicity [29] 1.77% | activity change, negative = cytotoxicity [30] 13.3% | activity change, negative = cytotoxicity [31] 0.729%
active: Potency [5] 7.76 µM

Reference: PubChem BioAssay (NCATS)
